From patent US9063123B2, “Transgenic mice expressing human toll-like receptor 8” (Dynavax Technologies Corporation, priority 2011, dated 2015)

Assays:
[1] = test system: wild-type mice; test: Serum IL-12 after intravenous TLR8 agonist in wild-type mice; format: in vivo, mouse; details: wild-type mice injected intravenously
[2] = target: T1, human TLR8 (hTLR8Tg mice) (Homo sapiens, UniProt Q9NR97); test: Serum IL-12 after intravenous TLR8 agonist in TLR8Tg Clone 8 mice; format: in vivo; details: serum 6 hr later, ORN8-L 300 μg, CL075 5 μg
T1 construct: the human BAC carrying TLR8 gene was obtained from the RPCIB-753 BAC library; expressed in transfected cells; host or cells: Blood cells, bone marrow cells and PBMC of hTLR8 transgenic mice, and the whole animals; The mice came from C57BL/6NTac ES cells transfected with the BAC: the Clone 8 germline line and chimeras
T1 sequence (Q9NR97 27-1041): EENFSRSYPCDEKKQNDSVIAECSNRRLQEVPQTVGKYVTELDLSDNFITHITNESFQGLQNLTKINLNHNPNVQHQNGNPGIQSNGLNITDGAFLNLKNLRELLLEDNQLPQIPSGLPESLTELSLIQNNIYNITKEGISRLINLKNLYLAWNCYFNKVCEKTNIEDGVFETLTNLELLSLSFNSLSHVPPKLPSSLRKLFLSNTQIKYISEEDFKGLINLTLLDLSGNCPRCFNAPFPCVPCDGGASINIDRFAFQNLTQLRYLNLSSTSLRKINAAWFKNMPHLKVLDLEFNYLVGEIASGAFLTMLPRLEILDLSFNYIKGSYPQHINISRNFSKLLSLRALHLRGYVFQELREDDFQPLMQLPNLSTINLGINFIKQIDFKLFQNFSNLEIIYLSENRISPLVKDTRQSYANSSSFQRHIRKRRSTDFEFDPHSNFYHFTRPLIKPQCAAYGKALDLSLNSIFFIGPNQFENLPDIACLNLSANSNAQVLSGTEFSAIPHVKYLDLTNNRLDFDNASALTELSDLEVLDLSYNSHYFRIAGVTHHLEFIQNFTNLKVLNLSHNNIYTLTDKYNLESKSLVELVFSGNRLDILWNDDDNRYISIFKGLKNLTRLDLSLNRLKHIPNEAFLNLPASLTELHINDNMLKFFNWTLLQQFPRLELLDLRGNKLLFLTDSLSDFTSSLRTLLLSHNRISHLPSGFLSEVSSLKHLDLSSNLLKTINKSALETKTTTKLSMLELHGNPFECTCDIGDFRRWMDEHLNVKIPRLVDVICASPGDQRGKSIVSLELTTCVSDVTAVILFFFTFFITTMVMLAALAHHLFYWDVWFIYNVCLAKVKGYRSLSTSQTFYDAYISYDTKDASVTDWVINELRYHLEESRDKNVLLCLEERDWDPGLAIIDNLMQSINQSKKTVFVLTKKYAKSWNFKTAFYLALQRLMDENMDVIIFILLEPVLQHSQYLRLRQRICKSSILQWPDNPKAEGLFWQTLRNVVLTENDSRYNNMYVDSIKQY

Substance: CL075
- IL-12 in the serum of wild-type mice [1]: not from wild-type mice
- secretion of IL-12 in vivo (serum) in hTLR8Tg mice [2]: induced secretion; also recorded: elevated levels of IL-12

“Also recorded” adds a separate entry of the source.
